Values of other authors in US20220105051A1, “COMPOUNDS FOR INCREASING MHC-I EXPRESSION AND MODULATING HISTONE DEACETYLASE ACTIVITY” (Cava Healthcare Inc., priority 2019, published 2022).

Chains of the proteins cited; added tags and fusions are not shown. Lines headed by an entry give the natural chain unless they say otherwise; changes in a name come on top.
UniProt Q9UKV0: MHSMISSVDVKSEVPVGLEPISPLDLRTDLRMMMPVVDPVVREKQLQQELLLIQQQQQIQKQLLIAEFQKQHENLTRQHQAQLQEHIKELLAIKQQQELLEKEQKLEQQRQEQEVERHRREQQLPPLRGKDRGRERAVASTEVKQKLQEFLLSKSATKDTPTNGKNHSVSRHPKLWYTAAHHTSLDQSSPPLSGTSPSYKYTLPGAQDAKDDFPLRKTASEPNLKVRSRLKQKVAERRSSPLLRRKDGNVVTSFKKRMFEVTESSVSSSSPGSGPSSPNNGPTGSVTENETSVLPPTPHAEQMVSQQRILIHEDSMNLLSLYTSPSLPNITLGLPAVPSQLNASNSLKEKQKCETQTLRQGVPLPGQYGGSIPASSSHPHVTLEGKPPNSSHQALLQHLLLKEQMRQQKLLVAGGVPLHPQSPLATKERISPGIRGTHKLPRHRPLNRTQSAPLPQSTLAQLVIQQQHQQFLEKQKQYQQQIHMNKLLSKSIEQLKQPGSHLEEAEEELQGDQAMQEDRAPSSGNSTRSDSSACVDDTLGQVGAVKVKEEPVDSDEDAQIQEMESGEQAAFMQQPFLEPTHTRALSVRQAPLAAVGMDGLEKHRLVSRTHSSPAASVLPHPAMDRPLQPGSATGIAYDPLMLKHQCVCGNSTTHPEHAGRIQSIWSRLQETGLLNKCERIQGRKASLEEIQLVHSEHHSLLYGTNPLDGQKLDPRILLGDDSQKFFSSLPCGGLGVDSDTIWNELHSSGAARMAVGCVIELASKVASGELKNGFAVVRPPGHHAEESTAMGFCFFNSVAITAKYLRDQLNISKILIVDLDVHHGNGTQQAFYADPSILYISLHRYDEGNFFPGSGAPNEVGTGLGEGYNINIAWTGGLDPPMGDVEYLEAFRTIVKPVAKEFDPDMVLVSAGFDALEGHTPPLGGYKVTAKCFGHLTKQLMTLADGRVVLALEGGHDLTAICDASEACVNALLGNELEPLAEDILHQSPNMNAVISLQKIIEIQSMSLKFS

Legend:
HDAC6 = molecular target: T1, HDAC6 (Homo sapiens, UniProt Q9UBN7); conditions: known; cited from earlier work
T1 construct: purchased BPS Biosciences
T1 sequence (Q9UBN7 1-1215): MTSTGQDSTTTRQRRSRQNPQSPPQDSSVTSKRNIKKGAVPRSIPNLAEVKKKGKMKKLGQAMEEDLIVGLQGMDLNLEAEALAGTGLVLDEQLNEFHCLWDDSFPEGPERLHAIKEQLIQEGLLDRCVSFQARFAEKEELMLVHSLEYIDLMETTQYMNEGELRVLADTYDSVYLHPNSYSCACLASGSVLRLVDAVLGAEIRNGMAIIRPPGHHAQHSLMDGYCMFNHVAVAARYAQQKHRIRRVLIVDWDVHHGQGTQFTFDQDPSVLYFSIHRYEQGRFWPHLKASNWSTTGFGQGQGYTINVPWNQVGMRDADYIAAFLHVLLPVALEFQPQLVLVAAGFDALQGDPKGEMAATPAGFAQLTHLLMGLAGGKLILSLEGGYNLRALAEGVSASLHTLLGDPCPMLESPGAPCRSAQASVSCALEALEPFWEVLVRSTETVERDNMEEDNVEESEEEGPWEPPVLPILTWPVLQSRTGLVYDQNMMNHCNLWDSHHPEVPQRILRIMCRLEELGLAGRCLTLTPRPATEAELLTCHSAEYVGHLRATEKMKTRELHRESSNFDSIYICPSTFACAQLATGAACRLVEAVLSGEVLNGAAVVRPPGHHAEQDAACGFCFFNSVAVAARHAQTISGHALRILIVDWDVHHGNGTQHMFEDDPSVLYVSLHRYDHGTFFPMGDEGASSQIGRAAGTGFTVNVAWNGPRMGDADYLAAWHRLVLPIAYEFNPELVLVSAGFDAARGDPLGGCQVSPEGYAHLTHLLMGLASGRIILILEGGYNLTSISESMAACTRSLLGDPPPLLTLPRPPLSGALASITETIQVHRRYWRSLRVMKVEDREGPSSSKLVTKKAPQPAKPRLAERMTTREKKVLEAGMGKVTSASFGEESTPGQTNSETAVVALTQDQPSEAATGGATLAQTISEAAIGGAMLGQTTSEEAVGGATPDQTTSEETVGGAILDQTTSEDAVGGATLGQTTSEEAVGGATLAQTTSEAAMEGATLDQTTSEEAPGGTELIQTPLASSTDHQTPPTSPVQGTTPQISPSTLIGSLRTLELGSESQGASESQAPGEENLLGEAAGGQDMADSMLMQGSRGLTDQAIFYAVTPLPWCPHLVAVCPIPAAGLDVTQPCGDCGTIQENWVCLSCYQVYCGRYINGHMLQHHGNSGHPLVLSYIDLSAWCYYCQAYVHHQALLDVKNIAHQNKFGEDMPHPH

HDAC9 = molecular target: T2, HDAC9 (Homo sapiens, UniProt Q9UKV0); conditions: known; cited from earlier work
T2 construct: purchased BPS Biosciences

CC(/C=C/C(=O)NO)=C\[C@@H](C)C(=O)c1ccc(N(C)C)cc1 [TSA, Trichostatin A, reference compound]
effect on HDAC6 (HDAC6): limited effect | effect on HDAC9 (HDAC9): limited effect
